# scFv variants of Ab-91 (heavy chain) against a SARS-CoV-2 spike peptide

Values reported by Engelhart et al. 2022, doi:10.1038/s41597-022-01779-4 (FLAb copy).

Target: peptide PDVDLGDISGINAS, taken from heptad repeat 2 (HR2) of SARS-CoV-2 spike.

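Phage display of a naive human antibody library on the peptide gave the parent. In library AAYL51, one, two or three CDR residues were substituted; doubles and triples were drawn at random. In AlphaSeq, yeast of one mating type display the scFv and yeast of the other type display the target. The frequency of each diploid, read from paired DNA barcodes, reflects how well the two displayed proteins bind. Each replicate has its own calibration line, from reference interactions of the BCL2 family. Mating was done three times.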

Parent: Ab-91, a human scFv built as VL, the linker GGGGSGGGGSGGGGS, VH. Only the CDRs of the heavy chain vary.
VL: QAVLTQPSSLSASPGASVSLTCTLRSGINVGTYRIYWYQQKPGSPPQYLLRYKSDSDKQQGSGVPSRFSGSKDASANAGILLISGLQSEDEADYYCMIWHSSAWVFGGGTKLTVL
VH: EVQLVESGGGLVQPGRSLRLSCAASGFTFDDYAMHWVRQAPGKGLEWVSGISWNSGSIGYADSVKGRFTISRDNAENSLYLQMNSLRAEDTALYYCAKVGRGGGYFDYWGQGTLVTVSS

The parent's heavy chain CDRs are GFTFDDYAMH, GISWNSGSIGYADSVK, VGRGGGYFDY; each variant's own CDRs replace them letter for letter.
Every variant below is changed at D62 of the VH (sequential numbering).
The Kd shown is the geometric mean over detected replicates; a lower Kd is a better binder.
An entry "nd" has no value in the source: the pair was not observed among the diploids in any replicate. This suggests poor binding but is not conclusive.
Background: pairings of library AAYL51 with three empty control strains gave a value in 21% of cases (median 34 µM, 5th percentile 1.8 µM). Values in that range, when seen in few replicates, are hard to tell from nonspecific mating.
Parent in this assay: reference entry 72 nM, copy in this library 7.5 nM.

With GFTFDDGAMH / GRSWNSGSIGYAKSVK / VGRGGGYFDY the result was nd (0 of 3 replicates). Variant GFTFDDYAMH / GISWNSGSINYARSVK / VGRGGGYFDY showed 87 µM (1 of 3 replicates). Variant GFTFDDYAMH / GISWNSGSIAGARSVK / VGRGGGYFDY gave 160 µM (3 of 3 replicates). Variant GFTFDDYAMH / GISWNMGSIGYAESVK / VGRGGGYQDY gave 25 nM (3 of 3 replicates). Variant GFTFDDYAMH / GISWNSGSIGYATSVK / VGRGGGKFAY showed 49 nM (3 of 3 replicates). Variant GFTFDDYAMH / GISWNSPSIGYAPSVR / VGRGGGYFDY showed nd (0 of 3 replicates). For GFTFDDYAMH / GISWNSGSIGYAMSVK / VGRGGGYYDY, the assay gave nd (0 of 3 replicates). With GFTFDDYAMH / GISWNSGSIGYAISVK / VGRGGGHFDY the result was nd (0 of 3 replicates).

For GFTFDDYDMH / GISWNSGSIGYAVSVK / VGRGGGYFDY, the assay gave nd (0 of 3 replicates). With GFTFDDYAMH / GISWNSGSIGYAMSVK / VGRGGGYFQY the result was 42 µM (3 of 3 replicates). Variant GFTFDDYAMH / GISWNSGSIGYACSVK / VGLGGGYQDY showed 1.6 µM (3 of 3 replicates). Variant YFTFDDYAMH / GISWNSGSIAYALSVK / VGRGGGYFDY showed nd (0 of 3 replicates). Variant YFTFDDYAMH / GISWNSGSIGEAFSVK / VGRGGGYFDY gave 1.9 µM (1 of 3 replicates). For GFTFDDYAMH / GISWWSGSIGYARSVK / VGRHGGYFDY, the assay gave nd (0 of 3 replicates). With GFTFDDYAMH / FISWNSGSIGCALSVK / VGRGGGYFDY the result was nd (0 of 3 replicates). Variant GFTFDDYAMT / GISWASGSIGYASSVK / VGRGGGYFDY gave nd (0 of 3 replicates).

Variant GFTFDDYAMH / GISWNSGSIGYASSVI / VGRGGGYFDG showed nd (0 of 3 replicates). For GFTFDHYAMH / GISWLSGSIGYACSVK / VGRGGGYFDY, the assay gave 170 µM (1 of 3 replicates). With GFTFDDYAMH / SISWNSGSIGYQVSVK / VGRGGGYFDY the result was nd (0 of 3 replicates). For GFTFDDYCMN / GISWNSGSIGYACSVK / VGRGGGYFDY, the assay gave 68 µM (1 of 3 replicates). With GFTFDDEAMH / GVSWNSGSIGYAISVK / VGRGGGYFDY the result was nd (0 of 3 replicates). With GFTFDDYAMH / GISWNSGSIGYAMSCK / VGRGGGYFDY the result was nd (0 of 3 replicates). Variant GFTFDDYAMH / GISWNSGSKGYAQSFK / VGRGGGYFDY showed 130 nM (3 of 3 replicates). Variant GFTFDDYAMW / GISWNSGSIGYAKSVK / VGRGGGYFLY showed nd (0 of 3 replicates).

Variant GFTPDDYAMH / GISWNSGSIGYAKSVK / VGRGGGYFDQ gave 2.6 µM (3 of 3 replicates). For GFTFDDVAMH / EISWNSGSIGYAPSVK / VGRGGGYFDY, the assay gave 140 µM (1 of 3 replicates). For GFTFDDYAML / GESWNSGSIGYAPSVK / VGRGGGYFDY, the assay gave nd (0 of 3 replicates). With GVTFDDYAMH / GISWNSGSSGYAQSVK / VGRGGGYFDY the result was 360 µM (1 of 3 replicates). For GFTFDDYAMH / GISWNSGRIGYANSVK / VGRGEGYFDY, the assay gave 21 µM (1 of 3 replicates). Variant GFTFDDYAMH / GISWNHGSIGYAMSVR / VGRGGGYFDY showed nd (0 of 3 replicates). Variant GFTFDDYAMH / GISHNSGSYGYAVSVK / VGRGGGYFDY gave nd (0 of 3 replicates). Variant GFTFDDYAMH / GISWNSGLIGYAMSVK / VGRGGPYFDY gave nd (0 of 3 replicates).

For GFTFDQYAMH / GISENSGSIGYASSVK / VGRGGGYFDY, the assay gave nd (0 of 3 replicates). For GFTFDDYAMH / GISWNSGSINYAKSVK / VGRGGGDFDY, the assay gave nd (0 of 3 replicates). Variant GFTFDDYAMH / GISWNSGSIGYAKSVK / VGRWGGTFDY showed nd (0 of 3 replicates). For GFTWDDYAMH / GISWNSGSIGYAISQK / VGRGGGYFDY, the assay gave nd (0 of 3 replicates). With GFTFDDCRMH / GISWNSGSIGYALSVK / VGRGGGYFDY the result was nd (0 of 3 replicates). With GRTFDDYDMH / GISWNSGSIGYARSVK / VGRGGGYFDY the result was nd (0 of 3 replicates). Variant GFTFDDYAMH / GISWNSSSIGYAQSVK / VGRWGGYFDY gave 31 µM (2 of 3 replicates). Variant GFTFDDYAMH / GISWNSFSIGTAMSVK / VGRGGGYFDY gave 19 µM (1 of 3 replicates).

Variant GFTFDDYAMH / GISWNSGSIGYAESVK / VGRKGGYFDY gave 9.4 nM (3 of 3 replicates). Variant CFTFDDYAMH / GISWNSGRIGYANSVK / VGRGGGYFDY showed 12 µM (1 of 3 replicates). With GFTFDDYAMH / GISWNSGSIGYAESCW / VGRGGGYFDY the result was 8.9 µM (1 of 3 replicates). Variant GFTFDDYAMH / GISDNSGHIGYAQSVK / VGRGGGYFDY gave 1.3 µM (3 of 3 replicates). Variant WFTFDDYACH / GISWNSGSIGYAWSVK / VGRGGGYFDY gave 35 µM (1 of 3 replicates). With GFTFDDYAMH / GISWNSGSIGYAVSVK / VSRGHGYFDY the result was 130 µM (3 of 3 replicates). For GFTFDDYALH / FISWNSGSIGYALSVK / VGRGGGYFDY, the assay gave nd (0 of 3 replicates). Variant GFTFVDYAMH / GISWNSGPIGYAMSVK / VGRGGGYFDY showed 1.4 µM (1 of 3 replicates).

Variant GFTFDDYAMH / GISYNSISIGYAYSVK / VGRGGGYFDY showed 180 nM (3 of 3 replicates). With GFTFDDLAMH / GISWSSGSIGYAMSVK / VGRGGGYFDY the result was nd (0 of 3 replicates). Variant GFTFDDQAMH / GISWNSGSIGYAVSVK / VGYGGGYFDY gave nd (0 of 3 replicates). For GFTFDDYAMH / GISWNSGSIGYCYSVK / CGRGGGYFDY, the assay gave nd (0 of 3 replicates).

Extract of 7 entries:

| CDR-H1 | CDR-H2 | CDR-H3 | Kd (apparent) | replicates with signal |
|---|---|---|---|---|
| GFTFDDYAMH | FISWNSGSIGCALSVK | VGRGGGYFDY | nd | 0/3 |
| GFTFDDGAMH | GRSWNSGSIGYAKSVK | VGRGGGYFDY | nd | 0/3 |
| GFTFDDYAMH | GISWNSFSIGTAMSVK | VGRGGGYFDY | 19 µM | 1/3 |
| GFTFDDYAMH | SISWNSGSIGYQVSVK | VGRGGGYFDY | nd | 0/3 |
| GFTFDDYAMH | GISWNSGSIGYATSVK | VGRGGGKFAY | 49 nM | 3/3 |
| GFTFDDYAML | GESWNSGSIGYAPSVK | VGRGGGYFDY | nd | 0/3 |
| GFTFDHYAMH | GISWLSGSIGYACSVK | VGRGGGYFDY | 170 µM | 1/3 |